Molecular target: PARP-1 (Homo sapiens, UniProt P09874)
Assay: Competitive binding assay with [3H]WC-DZ in U251MG cells
Conditions: competitive binding vs [3H]WC-DZ in U251MG cells; Mean ± SEM, n = 3

Sequences of proteins named here, by UniProt entry; tags and fusion partners are left off.
UniProt P09874, whole entry: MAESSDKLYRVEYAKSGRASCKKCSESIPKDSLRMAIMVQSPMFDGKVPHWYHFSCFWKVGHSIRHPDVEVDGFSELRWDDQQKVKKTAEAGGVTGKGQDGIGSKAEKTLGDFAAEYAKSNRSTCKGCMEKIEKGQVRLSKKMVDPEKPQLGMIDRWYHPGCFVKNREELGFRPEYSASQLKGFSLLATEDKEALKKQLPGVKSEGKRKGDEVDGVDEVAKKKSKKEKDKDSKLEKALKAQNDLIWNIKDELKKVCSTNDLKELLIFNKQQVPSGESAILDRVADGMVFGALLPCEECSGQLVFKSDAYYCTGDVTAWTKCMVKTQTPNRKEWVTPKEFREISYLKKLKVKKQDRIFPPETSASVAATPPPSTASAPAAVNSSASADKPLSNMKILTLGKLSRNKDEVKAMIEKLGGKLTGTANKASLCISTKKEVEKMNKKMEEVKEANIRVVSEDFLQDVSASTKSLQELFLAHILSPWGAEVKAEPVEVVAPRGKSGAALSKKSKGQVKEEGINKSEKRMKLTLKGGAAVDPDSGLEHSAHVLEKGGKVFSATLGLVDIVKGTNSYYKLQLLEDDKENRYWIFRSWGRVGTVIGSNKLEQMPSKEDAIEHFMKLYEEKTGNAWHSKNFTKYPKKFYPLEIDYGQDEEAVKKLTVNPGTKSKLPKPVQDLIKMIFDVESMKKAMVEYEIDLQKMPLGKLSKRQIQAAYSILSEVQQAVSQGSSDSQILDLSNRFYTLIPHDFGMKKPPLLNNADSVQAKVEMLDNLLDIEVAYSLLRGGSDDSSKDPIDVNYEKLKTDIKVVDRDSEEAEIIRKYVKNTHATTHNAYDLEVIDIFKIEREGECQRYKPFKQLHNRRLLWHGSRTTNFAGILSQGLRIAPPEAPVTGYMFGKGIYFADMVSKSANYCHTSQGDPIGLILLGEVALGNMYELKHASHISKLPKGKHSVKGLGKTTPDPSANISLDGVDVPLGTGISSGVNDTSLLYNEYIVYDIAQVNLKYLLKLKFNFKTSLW

Structure (SMILES) | pseudoHill coefficient n′H
Cn1ncnc1C1c2n[nH]c(=O)c3cc(F)cc(c23)NC1c1ccc(F)cc1 (centres unmarked) [Compound 3a] | 1.00 ± 0.07
Cn1ncnc1[C@H]1c2n[nH]c(=O)c3cc(F)cc(c23)N[C@@H]1c1ccc(F)cc1 [3a″, (8S,9R)-5-Fluoro-8-(4-fluorophenyl)-9-(1-methyl-1H-1,2,4-triazol-5-yl)-2,7,8,9-tetrahydro-3H-pyrido[4,3,2-de]phthalazin-3-one] | 0.76 ± 0.13
